In PubChem BioAssay (Tox21):
Values joined by “and” are separate entries in the source; they are usually repeats but may differ in a detail not shown here. Equal entries are not always repeated. The list shows a part of the results, in another mix than the full data. Inconclusive results are not listed. Active and inactive are the calls of the source. Unless noted, the call rests on the fitted dose curve; in most records, active means well fitted curve in the direction sought with a large enough effect in the repeat runs; inconclusive means weak or mixed curves; inactive means no such curve, though single readings can be large; an effect the other way counts as inactive or inconclusive.

Protein sequences, listed by entry. Tags and fused reporters are not part of them.
UniProt P04150, whole entry: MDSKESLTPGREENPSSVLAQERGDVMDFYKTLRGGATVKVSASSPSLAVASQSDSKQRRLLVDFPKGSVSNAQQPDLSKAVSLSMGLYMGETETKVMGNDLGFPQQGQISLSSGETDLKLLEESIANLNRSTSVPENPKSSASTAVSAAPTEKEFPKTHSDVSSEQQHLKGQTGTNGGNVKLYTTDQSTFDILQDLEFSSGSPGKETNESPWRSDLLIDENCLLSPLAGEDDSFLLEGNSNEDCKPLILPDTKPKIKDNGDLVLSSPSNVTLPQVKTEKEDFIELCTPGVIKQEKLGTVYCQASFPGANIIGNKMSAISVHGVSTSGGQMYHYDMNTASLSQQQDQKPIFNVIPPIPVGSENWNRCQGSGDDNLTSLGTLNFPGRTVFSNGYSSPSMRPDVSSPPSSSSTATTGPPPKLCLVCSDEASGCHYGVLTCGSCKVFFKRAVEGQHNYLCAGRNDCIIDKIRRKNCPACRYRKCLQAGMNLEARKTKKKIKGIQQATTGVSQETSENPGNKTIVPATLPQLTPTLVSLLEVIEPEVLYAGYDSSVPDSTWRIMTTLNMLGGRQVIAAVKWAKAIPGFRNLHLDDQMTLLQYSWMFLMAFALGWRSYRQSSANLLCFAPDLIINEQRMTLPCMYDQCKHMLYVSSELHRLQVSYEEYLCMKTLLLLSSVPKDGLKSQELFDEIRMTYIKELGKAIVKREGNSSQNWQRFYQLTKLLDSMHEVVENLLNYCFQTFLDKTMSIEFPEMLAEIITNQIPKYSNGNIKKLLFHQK

How the values were obtained:
[1] = qHTS assay for small molecule agonists of the p53 signaling pathway - cell viability (AID 651633; calls by dose curve; further: nearly all actives have a fitted effect of over 30% in size); settings: p53RE-bla HCT-116 viability, ATP luminescence, 16 h
In short: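 Viability counter-read: CellTiter-Glo luminescence (30 min, room temperature) in the same p53RE-bla plates. These plates had been exposed to compounds for 16 h at 37 C.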

[2] = qHTS assay for small molecules that induce genotoxicity in human embryonic kidney cells expressing luciferase-tagged ATAD5 - cell viability (AID 651634; calls by dose curve; further: nearly all actives have a fitted effect of over 25% in size); settings: HEK293T ATAD5-luc cells viability, CellTiter-Fluor, 15.5 h
In short: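 HEK293T cells expressing luciferase-tagged ATAD5 were exposed to compound or DMSO for 15.5 hr at 37C, 5% CO2. Viability was then read as live-cell protease activity by CellTiter-Fluor fluorescence after 30 min at 37C.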

[3] = qHTS assay for small molecule disruptors of the mitochondrial membrane potential - cell viability (AID 720634; calls by dose curve;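 further: human HepG2 liver cancer cells; nearly all actives have a fitted effect of over 20% in size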); settings: HepG2 viability, ATP luminescence (CellTiter-Glo), 1 h
In short: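 HepG2 cells seeded overnight at 37 C, then exposed to compound or DMSO for 1 hr at 37 C, 5% CO2. m-MPI dye added, then CellTiter-Glo for 30 min at room temperature; viability read as ATP luminescence.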

[4] = qHTS assay to test for compound auto fluorescence at 590 nm (red) in HepG2 cells (AID 720674); settings: HepG2 autofluorescence, red 540/590 nm, 1 h
In short: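 We screened compounds on adherent HepG2 cells, incubating them for an hour at 37 C in 5% CO2 before reading emission at 590 nm under 540 nm excitation; values reflect equivalence to Rose Bengal sodium fluorescence.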

[5] = qHTS assay to test for compound auto fluorescence at 535 nm (green) in HepG2 cells (AID 720675); settings: green autofluorescence 485/535 nm, 1 h
[6] = qHTS assay to test for compound auto fluorescence at 460 nm (blue) in HEK293 cells (AID 720678); settings: blue autofluorescence 405/460 nm
In short: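 Cells were seeded and left to adhere for 4-5 hr at 37C. Compounds were then pin-transferred. After an overnight incubation at 37C under 5% CO2, intrinsic fluorescence at 405/460 nm was measured and referenced to triamterene.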

[7] = qHTS assay to test for compound auto fluorescence at 590 nm (red) in HEK293 cells (AID 720679); settings: red autofluorescence 540/590 nm
In short: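 Each well held 2,000 HEK293 cells in medium containing 10% dialyzed FBS. Following 4-5 hr attachment at 37C, 23 nL test compound or DMSO was added; plates sat overnight, and red fluorescence (540/590nm) was recorded.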

[8] = qHTS assay to test for compound auto fluorescence at 535 nm (green) in HEK293 cells (AID 720680); settings: green autofluorescence 485/535 nm
[9] = qHTS assay to test for compound auto fluorescence at 460 nm (blue) in HEK293 cell free culture (AID 720681); settings: cell-free medium, autofluorescence 405/460 nm (blue)
In short: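 Blue fluorescence (Ex 405/Em 460 nm, triamterene-equivalent) was read immediately after pin transfer of compound or DMSO into medium (DMEM, 10% FBS) without cells.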

[10] = qHTS assay to test for compound auto fluorescence at 535 nm (green) in HEK293 cell free culture (AID 720682); settings: cell-free medium, green autofluorescence 485/535 nm, stronger effect = higher value
In short: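 DMEM + 10% FBS, cell-free; cpd or DMSO pinned in; Ex485/Em535 read; output as fluorescein-equivalent signal.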

[11] = qHTS assay to test for compound auto fluorescence at 590 nm (red) in HEK293 cell free culture (AID 720683); settings: cell-free medium autofluorescence, Ex540/Em590 red
In short: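 Red-channel autofluorescence of compounds in culture medium (DMEM, 10% FBS), no cells, measured at 540/590 nm. Rose Bengal sodium is the reference fluorophore for equivalence.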

[12] = qHTS assay to test for compound auto fluorescence at 590 nm (red) in HepG2 cell free culture (AID 720684); settings: cell-free medium autofluorescence, red 540/590 nm
In short: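 Plate contents were MEM with 10% FBS plus test compound or DMSO, no cells. Fluorescence was recorded with 540 nm excitation and 590 nm emission.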

[13] = qHTS assay to test for compound auto fluorescence at 460 nm (blue) in HepG2 cell free culture (AID 720685); settings: Cell-free culture medium, blue autofluorescence 405/460 nm
In short: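 Compound (23 nL) or DMSO pinned into cell-free MEM with 10% FBS; blue fluorescence read at 405/460 nm excitation/emission, expressed as auto-fluorescence equivalency to triamterene.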

[14] = qHTS assay to test for compound auto fluorescence at 535 nm (green) in HepG2 cell free culture (AID 720686); settings: Cell-free medium, green autofluorescence 485/535 nm
[15] = qHTS assay to test for compound auto fluorescence at 460 nm (blue) in HepG2 cells (AID 720687); settings: autofluorescence 405/460 nm, 1 h
In short: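 Blue-channel autofluorescence (Ex/Em 405/460 nm, triamterene-equivalent) was measured after 1 hr compound exposure at 37 C, 5% CO2. Cells were HepG2, plated overnight at 37 C in MEM plus 10% FBS.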

[16] = biological target: Glucocorticoid receptor (Homo sapiens) (UniProt P04150); test: qHTS assay to identify small molecule agonists of the glucocorticoid receptor (GR) signaling pathway (AID 720691; active means well fitted activation curve with a large enough effect in the signal ratio in the repeat runs, not every such curve was filed as active; the % refers to the signal ratio); settings: GR-bla HeLa, beta-lactamase reporter ratio, 18 h; at 29.2 µM (top of the series)
[17] = biological target: Glucocorticoid receptor (Homo sapiens) (UniProt P04150); test: qHTS assay to identify small molecule antagonists of the glucocorticoid receptor (GR) signaling pathway (AID 720692; active means well fitted inhibition curve with a large enough effect in the signal ratio in the repeat runs, not every such curve was filed as active; the % refers to the signal ratio); settings: GR-bla HeLa, beta-lactamase FRET ratio, dexamethasone-stimulated, 18 h; at 27 µM (top of the series)
[18] = qHTS assay for identifying genotoxic compounds that show differential cytotoxicity against isogenic chicken DT40 cell lines with known DNA damage response pathways - wild type cell line (AID 743012); settings: DT40 wild type chicken cells viability, CellTiter-Glo, 40 h; further: nearly all actives have a fitted effect of over 60% in size
In short: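 Parental DNA repair-proficient DT40 cells, 300 per well, were pre-incubated ~0.5 h at 37 C/5% CO2, pin-dosed with compounds in DMSO, then incubated 40 h. Viability was read as CellTiter-Glo luminescence after 30 min at room temperature.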

[19] = qHTS assay for small molecule agonists of the p53 signaling pathway (AID 651631; calls by dose curve; further: nearly all actives have a fitted effect of over 15% in size); settings: HCT-116 p53RE-bla reporter, beta-lactamase FRET ratio, 16 h
In short: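 Testing took place in human colorectal HCT-116 cells with stable p53RE-driven beta-lactamase. After 16 h of compound exposure at 37 °C, a FRET substrate was added and fluorescence recorded 2 h later.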

[20] = qHTS assay for small molecules that induce genotoxicity in human embryonic kidney cells expressing luciferase-tagged ATAD5 (AID 651632); settings: HEK293T ATAD5-luciferase induction, 16 h; series mostly up to 83.3 µM; further: nearly all actives have a fitted effect of over 15% in size
In short: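 HEK293T cells carrying a luciferase reporter tagged to ATAD5 were exposed to compound or DMSO vehicle for 16 hr at 37C, 5% CO2. Amplite was added, and after 30 min at room temperature luciferase activity was read as a marker of ATAD5 induction.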
On the % scale 0 is the no-effect control and ±100 the full control effect.

C/C1=C2N=C(/C=C3N=C(/C(C)=C4\[N-][C@@](C)([C@@H]5N=C1[C@](C)(CCC(=O)NC[C@@H](C)OP(=O)([O-])O[C@H]1[C@@H](O)[C@@H](n6cnc7cc(C)c(C)cc76)O[C@@H]1CO)[C@H]5CC(N)=O)[C@@](C)(CC(N)=O)[C@@H]4CCC(N)=O)[C@@](C)(CC(N)=O)[C@@H]\3CCC(N)=O)C(C)(C)[C@@H]/2CCC(N)=O.[C-]#N.[Co+3]
inactive: activity change, negative = cytotoxicity ([1]; at 39.1 µM (top of the series)) -4.9% | activity, negative = cytotoxicity ([2]; at 39.1 µM (top of the series)) -7.18% | activity change, negative = cytotoxicity ([3]; at 39.1 µM (top of the series)) -4.95% | fluorescence, relative to Rose Bengal ([4]; at 18.6 µM (top of the series)) 0.536% | fluorescence, % of fluorescein control ([5]; at 18.6 µM (top of the series)) 0.0241% | fluorescence, % of triamterene ([6]; at 18.6 µM (top of the series)) -0.154% | fluorescence, % of fluorescent control ([7]; at 18.6 µM (top of the series)) -1.2% | fluorescence, % of fluorescein ([8]; at 18.6 µM (top of the series)) -0.0165% | fluorescence, % of fluorescent control ([9]; at 18.6 µM (top of the series)) 0.0919% | activity change ([10]; at 18.6 µM (top of the series)) -0.0523% | fluorescence, % of fluorescent control ([11]; at 18.6 µM (top of the series)) -0.318% | fluorescence, % of Rose Bengal ([12]; at 18.6 µM (top of the series)) -0.255% | fluorescence, % of fluorescent control ([13]; at 18.6 µM (top of the series)) -0.045% | fluorescence, % of fluorescein control ([14]; at 18.6 µM (top of the series)) 0.0019% | fluorescence, % of fluorescent control ([15]; at 18.6 µM (top of the series)) 0.131% | activation [16] -0.781% | activity change, negative = inhibition [17] -4.39% | activity change, negative = cytotoxicity ([18]; at 31.4 µM (top of the series)) 9.42%

Cc1ccc([N+](=O)[O-])cc1[N+](=O)[O-]
inactive: activation ([19]; at 73.3 µM (top of the series)) -3.39% and -3.71% | Potency [20] | activity change, negative = cytotoxicity ([1]; at 83.3 µM (top of the series)) 15.6% and -10.8% | activity, negative = cytotoxicity ([2]; at 83.3 µM (top of the series)) 12% and 13.6% | activity change, negative = cytotoxicity ([3]; at 83.2 µM (top of the series)) -1.5% and 13.2% | fluorescence, relative to Rose Bengal ([4]; at 91.3 µM (top of the series)) -0.0705% and -0.0651% | fluorescence, % of fluorescein control ([5]; at 91.3 µM (top of the series)) 0.0702% and 0.101% | fluorescence, % of triamterene ([6]; at 91.3 µM (top of the series)) -0.0002% and 0.0082% | fluorescence, % of fluorescent control ([7]; at 91.3 µM (top of the series)) 0.175% and 0.246% | fluorescence, % of fluorescein ([8]; at 91.3 µM (top of the series)) 0.0397% and -0.0144% | fluorescence, % of fluorescent control ([9]; at 91.3 µM (top of the series)) -0.107% and -0.0083% | activity change ([10]; at 91.3 µM (top of the series)) -0.0205% and 0.131% | fluorescence, % of fluorescent control ([11]; at 91.3 µM (top of the series)) -0.33% and 0.173% | fluorescence, % of Rose Bengal ([12]; at 91.3 µM (top of the series)) 0.0401% and 0.0481% | fluorescence, % of fluorescent control ([13]; at 91.3 µM (top of the series)) -0.164% and 0.0227% | fluorescence, % of fluorescein control ([14]; at 91.3 µM (top of the series)) -0.0665% and 0.0137% | fluorescence, % of fluorescent control ([15]; at 91.3 µM (top of the series)) -0.192% and 0.007% | activity change, negative = cytotoxicity ([18]; at 68.4 µM (top of the series)) -15.4% and 5.34%

Nc1cc([N+](=O)[O-])cc([N+](=O)[O-])c1O
inactive: activation ([19]; at 95.1 µM (top of the series)) -6.23% | Potency [20] | activity change, negative = cytotoxicity ([1]; at 95.3 µM (top of the series)) -10.9% | fluorescence, relative to Rose Bengal ([4]; at 95.7 µM (top of the series)) 0.111% | fluorescence, % of fluorescein control ([5]; at 95.7 µM (top of the series)) -0.302% | fluorescence, % of triamterene ([6]; at 95.7 µM (top of the series)) -1.15% | fluorescence, % of fluorescent control ([7]; at 95.7 µM (top of the series)) -0.524% | fluorescence, % of fluorescein ([8]; at 95.7 µM (top of the series)) -0.546% | fluorescence, % of fluorescent control ([9]; at 95.7 µM (top of the series)) -1.06% | activity change ([10]; at 95.7 µM (top of the series)) -0.272% | fluorescence, % of fluorescent control ([11]; at 95.7 µM (top of the series)) -0.335% | fluorescence, % of Rose Bengal ([12]; at 95.7 µM (top of the series)) -0.0345% | fluorescence, % of fluorescent control ([13]; at 95.7 µM (top of the series)) -0.932% | fluorescence, % of fluorescein control ([14]; at 95.7 µM (top of the series)) -0.321% | fluorescence, % of fluorescent control ([15]; at 95.7 µM (top of the series)) -0.765%
